{
  "source": "paper PMC4873368",
  "about": "(Cancer research, 2016)",
  "test_system": "human T cells",
  "assay": "Cytokine rescue of human T cell proliferation from trametinib",
  "format": "cell-based",
  "settings": "aAPCs, 200 nM trametinib, 7 days; IL-2 20 U/ml, IL-7 2 ng/ml, IL-15 10 ng/ml, IL-21 100 ng/ml, IL-27 50 ng/ml, ALT-803 35.7 ng/ml",
  "data": [
    {"substance": "IL-2: human IL-2 cytokine", "values": [
      {"measurement": "Rescue of human T cell proliferation in the presence of trametinib", "value": "able to individually rescue the proliferation"}
    ]}
  ]
}
